# In ChEMBL document CHEMBL4387701, “H2depda: An acyclic adjuvant potentiates meropenem activity in vitro against metallo-β-lactamase-producing enterobacterales” (Eur J Med Chem, 2019):
# How the values were obtained:
# Citrobacter freundii = assay: Inhibition of NDM1 in Citrobacter freundii clinical isolate 7 assessed as potentiation of meropenem-induced antibacterial activity by measuring meropenem MIC after 24 hrs by broth microdilution assay
# Escherichia coli = assay: Inhibition of NDM1 in Escherichia coli isolate 9 assessed as potentiation of meropenem-induced antibacterial activity by measuring meropenem MIC after 24 hrs by broth microdilution assay
compound,measurement,setting,value
O=C(O)CN1CCN(CC(=O)O)CCN(CC(=O)O)CC1,MIC,Citrobacter freundii,0.5 mg/L
same,MIC,Escherichia coli,0.5 mg/L
